Measurements as given in ChEMBL document CHEMBL1129297 (J Med Chem, 1996).

The chains behind the UniProt entries cited, without tags or fusion partners. Where a name states a change or a piece, a line headed by the entry shows the natural chain unless it says otherwise.
UniProt P28221: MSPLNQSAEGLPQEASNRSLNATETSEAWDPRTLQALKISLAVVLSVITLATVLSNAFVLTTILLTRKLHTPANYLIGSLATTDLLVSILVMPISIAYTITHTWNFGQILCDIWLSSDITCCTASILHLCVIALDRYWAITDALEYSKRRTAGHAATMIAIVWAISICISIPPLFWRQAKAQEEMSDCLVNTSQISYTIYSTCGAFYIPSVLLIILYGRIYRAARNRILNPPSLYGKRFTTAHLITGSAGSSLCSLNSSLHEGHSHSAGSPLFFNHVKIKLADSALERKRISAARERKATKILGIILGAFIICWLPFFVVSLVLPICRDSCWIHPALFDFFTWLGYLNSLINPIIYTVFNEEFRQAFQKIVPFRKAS

Biological target: 5-hydroxytryptamine receptor 1D (Homo sapiens, UniProt P28221)
Assay: Selectivity towards 5-hydroxytryptamine 1D receptor beta to that of 5-hydroxytryptamine 1D receptor alpha

COc1ccc2[nH]cc(CCN)c2c1 [5-METHOXYTRYPTAMINE]
Ki: 5.4 nM
